Experimental findings from paper PMC9706563, “Development of Macrocyclic PRMT5–Adaptor Protein Interaction Inhibitors” (Journal of Medicinal Chemistry, 2022) are described below.

Amino acid sequences for entries named in this document (tags omitted).
UniProt O14744, whole entry: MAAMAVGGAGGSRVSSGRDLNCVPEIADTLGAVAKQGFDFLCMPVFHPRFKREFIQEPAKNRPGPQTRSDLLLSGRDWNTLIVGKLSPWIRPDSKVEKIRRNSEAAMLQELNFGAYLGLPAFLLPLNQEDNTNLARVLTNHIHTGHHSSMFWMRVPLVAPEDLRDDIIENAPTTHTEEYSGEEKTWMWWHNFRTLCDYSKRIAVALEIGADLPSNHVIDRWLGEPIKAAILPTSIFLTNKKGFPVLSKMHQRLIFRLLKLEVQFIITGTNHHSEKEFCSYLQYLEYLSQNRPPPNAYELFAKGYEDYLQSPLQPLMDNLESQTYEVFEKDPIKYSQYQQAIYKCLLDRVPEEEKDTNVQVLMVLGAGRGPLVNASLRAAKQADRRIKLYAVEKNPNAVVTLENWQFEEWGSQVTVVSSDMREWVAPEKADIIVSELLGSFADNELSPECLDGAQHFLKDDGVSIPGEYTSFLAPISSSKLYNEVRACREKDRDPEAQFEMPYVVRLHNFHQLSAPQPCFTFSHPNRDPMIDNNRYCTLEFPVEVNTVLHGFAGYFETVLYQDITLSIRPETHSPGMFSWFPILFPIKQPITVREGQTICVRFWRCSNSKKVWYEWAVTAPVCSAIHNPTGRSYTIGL

The assay has as its target T1, PRMT5-MEP50 (Homo sapiens, UniProt O14744).
T1 construct: The compounds were tested by means of FP with the full-length PRMT5-MEP50 complex; made in house
Kind of assay: Direct binding fluorescence polarization (FP) assay of FITC-labeled peptides. The note with it: supplementary CSV. In general terms: Fluorescence polarisation rises when a labelled molecule tumbles more slowly, as on binding a larger partner.

By Kd is commonly meant the concentration at which binding is half-saturated. A lower Kd goes with tighter binding. `CC(=O)N[C@H](C(=O)N1CCC[C@H]1C(=O)N[C@@H]1CC=CCC[C@@H](C(=O)N[C@@H](CC(=O)O)C(=O)N[C@@H](C)C(=O)N[C@@H](CC(=O)O)C(=O)N[C@@H](CCCCNC(=S)Nc2ccc3c(c2)C(=O)OC32c3ccc(O)cc3Oc3cc(O)ccc32)C(N)=O)NC(=O)[C@H](Cc2ccccc2)NC(=O)[C@H](CCC(N)=O)NC1=O)C(C)C` (single isomer, unassigned) [18 (isomer 2)] came in with an equilibrium dissociation constant (Kd) of 1680 ± 920 nM.
